Reference: patent US11597737B2, “Small molecule inhibitors selective for polo-like kinase proteins” (UNIVERSITY OF SOUTH CAROLINA, priority 2016, dated 2023)

Protein sequences, listed by entry. Tags and fused reporters are not part of them. Residues count along the entry.
UniProt P53350, 367-603: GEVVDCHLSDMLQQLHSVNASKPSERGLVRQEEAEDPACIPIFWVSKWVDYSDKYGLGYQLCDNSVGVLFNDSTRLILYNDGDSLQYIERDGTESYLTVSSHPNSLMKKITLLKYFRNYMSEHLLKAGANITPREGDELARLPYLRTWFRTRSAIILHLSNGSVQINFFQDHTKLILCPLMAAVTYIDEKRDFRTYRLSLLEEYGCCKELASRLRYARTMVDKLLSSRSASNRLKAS

How the values were obtained:
PLK1 PBD (367-603) = molecular target: T1, PLK1 PBD (367-603) (Homo sapiens, UniProt P53350); test: Fluorescence polarization assay, PLK1 PBD; settings: PLK1 PBD binding
T1 construct: PLK1 PBD (367-603); purchased BPS Biosciences Inc. (San Diego, Calif.)
Experimental: (§1) Fluorescence Polarization Assay
(§2) Materials were dissolved in DMSO (10 mM) and diluted from 10 nM to 600 μM (maximum of 6% DMSO tolerance in the assay). […] Incubation was carried out at room temperature for 45 minutes. Fluorescence was measured using a DTX 880 plate reader and Multimode Analysis software (Beckman Coulter, Brea, Calif.). […] Each data point was performed in triplicate for every experiment, and experiments were performed at least three times. An IC50 value for each compound was calculated from linear regression analysis of the plots.

PLK3 PBD (335-646) = molecular target: T2, PLK3 PBD (335-646) (Homo sapiens, UniProt Q9H4B4); test: Fluorescence polarization assay, PLK3 PBD; settings: PLK3 PBD binding
T2 construct: PLK3 PBD (335-646); purchased BPS Biosciences Inc. (San Diego, Calif.)
T2 sequence (Q9H4B4 335-646): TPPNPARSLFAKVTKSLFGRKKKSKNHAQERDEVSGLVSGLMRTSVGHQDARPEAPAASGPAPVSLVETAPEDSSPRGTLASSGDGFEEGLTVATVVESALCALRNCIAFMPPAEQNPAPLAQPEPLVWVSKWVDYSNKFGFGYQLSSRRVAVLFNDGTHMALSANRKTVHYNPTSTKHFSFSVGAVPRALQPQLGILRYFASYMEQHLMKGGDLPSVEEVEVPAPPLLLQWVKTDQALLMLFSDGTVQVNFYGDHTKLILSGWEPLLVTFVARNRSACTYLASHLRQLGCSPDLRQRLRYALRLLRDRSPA
Experimental: as §1, §2

[1] = test system: HCT-116 (p53+/+) colon cancer cells; test: Cell viability assay (MTT), HCT116 p53+/+; assay type: cell-based; settings: 72 hours
Experimental: (§3) Exponentially growing cells were plated in 96-well dishes. Dose response curves were used to treat cells for 72 hours with inhibitors. Following the three-day treatment, cell viability was measured using the MTT (3-(4,5-dimethylthiazol-2-yl)-2,5-diphenyltetrazolium bromide) colorimetric assay. Cells were incubated for 3 hours with MTT allowing viable cells to metabolize the tetrazolium dye to a purple colored solution.

[2] = test system: HeLa cervical cancer cells; test: Cell viability assay (MTT), HeLa; assay type: cell-based; settings: 72 hours
Experimental: HeLa cervical cancer cells were obtained from ATCC (Manassas, Va.). […] Cells were maintained in DMEM (Invitrogen™, Carlsebad, Calif.) supplemented with 10% FBS or Corning© Nu-Serum™ (BD™ Biosciences, Franklin Lakes, N.J.) and 1% penicillin/streptomycin (Invitrogen™) in a humidified incubator and 5% CO2 at 37° C.
as §3

Compound | IC50 (PLK1 PBD (367-603)) [µM] | IC50 (PLK3 PBD (335-646)) [µM] | IC50 [1] [µM] | IC50 [2] [µM]
CCCCCCc1ccc(C(=O)Nc2ccccc2C(=O)O)cc1 [SCCP ID No. 5881] | 18.4 ± 5.3 | – | – | –
CCCCCCCCc1ccc(C(=O)Nc2cccc([N+](=O)[O-])c2C(=O)O)cc1 [SCCP ID No. 5939] | – | 9.96 ± 1.52 | – | –
CCCCCCCCc1ccc(C(=O)Nc2cccc(F)c2C(=O)O)cc1 [SCCP ID No. 5932] | – | 13.2 ± 0.46 | 12.4 ± 2.7 | 12.7 ± 2.3
CCCCCCCCc1ccc(C(=O)Nc2ccc(C)cc2C(=O)O)cc1 [SCCP ID No. 5915] | – | 7.68 ± 2.41 | – | –
